Measured values taken from ChEMBL document CHEMBL1137222, “Architecture of P2Y nucleotide receptors: structural comparison based on sequence analysis, mutagenesis, and homology modeling” (J Med Chem, 2004).

Amino acid sequences for entries named in this document (tags omitted).
UniProt P47900, whole entry E209D: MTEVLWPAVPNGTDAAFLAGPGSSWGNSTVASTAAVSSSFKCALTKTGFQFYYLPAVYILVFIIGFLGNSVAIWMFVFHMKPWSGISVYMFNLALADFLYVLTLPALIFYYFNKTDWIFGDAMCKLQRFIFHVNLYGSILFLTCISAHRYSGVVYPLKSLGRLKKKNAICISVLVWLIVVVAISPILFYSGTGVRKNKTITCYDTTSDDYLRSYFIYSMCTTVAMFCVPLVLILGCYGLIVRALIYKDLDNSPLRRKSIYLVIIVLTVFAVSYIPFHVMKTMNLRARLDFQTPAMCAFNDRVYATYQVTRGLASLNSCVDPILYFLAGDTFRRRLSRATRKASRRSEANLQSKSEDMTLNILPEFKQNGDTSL
UniProt P47900, whole entry E209R: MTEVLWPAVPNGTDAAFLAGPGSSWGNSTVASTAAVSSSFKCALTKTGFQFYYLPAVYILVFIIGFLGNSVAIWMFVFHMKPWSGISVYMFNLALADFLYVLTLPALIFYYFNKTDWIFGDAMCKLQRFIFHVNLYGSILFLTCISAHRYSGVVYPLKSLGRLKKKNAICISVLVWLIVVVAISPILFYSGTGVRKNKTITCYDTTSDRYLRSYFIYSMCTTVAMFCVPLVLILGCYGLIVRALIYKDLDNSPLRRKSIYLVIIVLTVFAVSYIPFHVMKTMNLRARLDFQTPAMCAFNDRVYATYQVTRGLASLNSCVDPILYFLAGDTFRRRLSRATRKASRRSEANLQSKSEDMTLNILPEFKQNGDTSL
UniProt P47900, whole entry Y203A: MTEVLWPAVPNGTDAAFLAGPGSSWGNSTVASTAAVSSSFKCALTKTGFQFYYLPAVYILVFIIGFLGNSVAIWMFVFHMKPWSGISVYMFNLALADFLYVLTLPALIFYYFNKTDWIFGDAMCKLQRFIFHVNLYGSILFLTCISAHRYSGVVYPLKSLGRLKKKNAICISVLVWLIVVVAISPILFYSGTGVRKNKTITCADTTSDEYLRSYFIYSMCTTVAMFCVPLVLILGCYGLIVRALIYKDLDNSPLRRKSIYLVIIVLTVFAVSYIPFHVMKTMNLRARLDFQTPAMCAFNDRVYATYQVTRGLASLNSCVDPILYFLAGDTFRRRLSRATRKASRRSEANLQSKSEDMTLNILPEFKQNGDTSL
UniProt P47900, whole entry Y273F: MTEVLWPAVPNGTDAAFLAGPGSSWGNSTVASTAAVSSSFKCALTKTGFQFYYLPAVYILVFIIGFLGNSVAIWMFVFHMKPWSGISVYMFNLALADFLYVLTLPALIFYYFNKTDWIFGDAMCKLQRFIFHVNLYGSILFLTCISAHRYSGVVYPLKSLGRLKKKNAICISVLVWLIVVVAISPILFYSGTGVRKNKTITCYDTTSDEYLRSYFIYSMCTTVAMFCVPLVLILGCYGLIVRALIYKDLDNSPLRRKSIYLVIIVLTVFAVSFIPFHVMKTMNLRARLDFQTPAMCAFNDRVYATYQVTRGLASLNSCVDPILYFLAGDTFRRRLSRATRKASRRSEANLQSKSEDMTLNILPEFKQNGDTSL
UniProt P47900, whole entry D289A: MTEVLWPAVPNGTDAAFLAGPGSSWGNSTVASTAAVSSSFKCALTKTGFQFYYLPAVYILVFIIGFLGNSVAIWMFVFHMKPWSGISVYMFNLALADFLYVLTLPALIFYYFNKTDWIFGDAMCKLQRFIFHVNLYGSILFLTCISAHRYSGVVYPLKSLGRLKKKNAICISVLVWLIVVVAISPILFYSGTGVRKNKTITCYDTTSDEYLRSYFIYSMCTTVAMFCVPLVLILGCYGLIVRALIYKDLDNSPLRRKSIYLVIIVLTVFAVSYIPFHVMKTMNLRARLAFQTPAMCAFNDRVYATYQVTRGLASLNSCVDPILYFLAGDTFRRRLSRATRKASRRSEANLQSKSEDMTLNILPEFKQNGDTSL
UniProt P47900, whole entry T222A: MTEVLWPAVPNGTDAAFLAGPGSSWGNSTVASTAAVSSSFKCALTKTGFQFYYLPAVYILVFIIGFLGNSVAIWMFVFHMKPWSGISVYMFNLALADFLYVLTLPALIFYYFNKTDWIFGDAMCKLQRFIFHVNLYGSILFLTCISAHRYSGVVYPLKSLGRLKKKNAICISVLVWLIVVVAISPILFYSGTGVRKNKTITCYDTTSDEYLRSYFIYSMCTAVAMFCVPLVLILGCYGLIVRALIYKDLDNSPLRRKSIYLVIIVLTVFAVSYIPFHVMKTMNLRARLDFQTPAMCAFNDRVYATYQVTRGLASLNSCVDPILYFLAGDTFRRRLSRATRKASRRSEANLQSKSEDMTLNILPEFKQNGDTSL
UniProt P47900, whole entry D300A: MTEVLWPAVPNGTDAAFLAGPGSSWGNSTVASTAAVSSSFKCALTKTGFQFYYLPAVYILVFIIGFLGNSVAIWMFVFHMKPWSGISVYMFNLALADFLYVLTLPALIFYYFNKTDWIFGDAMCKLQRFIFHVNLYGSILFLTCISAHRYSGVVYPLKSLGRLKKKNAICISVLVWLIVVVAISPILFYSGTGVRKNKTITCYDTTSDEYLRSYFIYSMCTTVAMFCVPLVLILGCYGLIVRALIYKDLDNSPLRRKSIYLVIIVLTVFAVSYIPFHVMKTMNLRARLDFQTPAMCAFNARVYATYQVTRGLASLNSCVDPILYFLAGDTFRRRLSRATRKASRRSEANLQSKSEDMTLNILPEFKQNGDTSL
UniProt P47900, whole entry R287E: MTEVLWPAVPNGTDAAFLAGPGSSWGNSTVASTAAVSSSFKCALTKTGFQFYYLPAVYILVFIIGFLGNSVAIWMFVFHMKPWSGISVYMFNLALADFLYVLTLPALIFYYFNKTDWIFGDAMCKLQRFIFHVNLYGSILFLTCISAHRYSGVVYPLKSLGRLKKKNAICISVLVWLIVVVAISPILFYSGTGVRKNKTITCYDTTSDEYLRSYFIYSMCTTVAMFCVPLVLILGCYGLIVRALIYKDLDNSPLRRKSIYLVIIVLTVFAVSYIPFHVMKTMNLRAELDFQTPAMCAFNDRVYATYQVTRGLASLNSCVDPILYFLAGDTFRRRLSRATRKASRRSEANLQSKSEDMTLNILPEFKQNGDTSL
UniProt P47900, whole entry R287Q: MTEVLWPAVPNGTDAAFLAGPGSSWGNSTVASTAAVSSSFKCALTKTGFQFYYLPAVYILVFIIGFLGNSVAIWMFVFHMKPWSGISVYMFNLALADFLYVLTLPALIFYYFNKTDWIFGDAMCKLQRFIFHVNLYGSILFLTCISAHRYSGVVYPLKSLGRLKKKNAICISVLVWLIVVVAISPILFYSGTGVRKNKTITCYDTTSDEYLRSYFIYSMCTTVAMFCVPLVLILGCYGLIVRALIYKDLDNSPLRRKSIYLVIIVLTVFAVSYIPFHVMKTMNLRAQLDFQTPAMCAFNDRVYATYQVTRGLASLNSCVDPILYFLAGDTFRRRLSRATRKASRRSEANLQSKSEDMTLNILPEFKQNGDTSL
UniProt P47900, whole entry E209Q: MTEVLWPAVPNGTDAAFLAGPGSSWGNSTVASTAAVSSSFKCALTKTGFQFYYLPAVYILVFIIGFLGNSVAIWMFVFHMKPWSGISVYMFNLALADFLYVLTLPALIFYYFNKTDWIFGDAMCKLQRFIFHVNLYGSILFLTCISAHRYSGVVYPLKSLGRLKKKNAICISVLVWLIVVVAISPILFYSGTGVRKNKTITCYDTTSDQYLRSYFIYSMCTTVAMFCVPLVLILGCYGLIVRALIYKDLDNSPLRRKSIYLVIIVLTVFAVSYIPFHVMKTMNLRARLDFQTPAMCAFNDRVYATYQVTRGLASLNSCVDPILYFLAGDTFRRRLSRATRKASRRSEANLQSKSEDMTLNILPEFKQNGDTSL
UniProt P47900, whole entry D204A: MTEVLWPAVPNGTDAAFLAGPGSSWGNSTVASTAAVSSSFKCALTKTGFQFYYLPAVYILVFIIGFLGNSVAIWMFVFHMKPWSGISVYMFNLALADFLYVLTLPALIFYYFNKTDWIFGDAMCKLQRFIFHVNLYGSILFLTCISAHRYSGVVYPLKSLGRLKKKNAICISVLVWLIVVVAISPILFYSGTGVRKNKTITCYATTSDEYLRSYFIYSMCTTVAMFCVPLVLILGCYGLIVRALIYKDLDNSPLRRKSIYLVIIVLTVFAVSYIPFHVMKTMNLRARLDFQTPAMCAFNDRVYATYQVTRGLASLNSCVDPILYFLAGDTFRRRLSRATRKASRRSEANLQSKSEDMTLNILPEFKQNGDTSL
UniProt P47900, whole entry C296A: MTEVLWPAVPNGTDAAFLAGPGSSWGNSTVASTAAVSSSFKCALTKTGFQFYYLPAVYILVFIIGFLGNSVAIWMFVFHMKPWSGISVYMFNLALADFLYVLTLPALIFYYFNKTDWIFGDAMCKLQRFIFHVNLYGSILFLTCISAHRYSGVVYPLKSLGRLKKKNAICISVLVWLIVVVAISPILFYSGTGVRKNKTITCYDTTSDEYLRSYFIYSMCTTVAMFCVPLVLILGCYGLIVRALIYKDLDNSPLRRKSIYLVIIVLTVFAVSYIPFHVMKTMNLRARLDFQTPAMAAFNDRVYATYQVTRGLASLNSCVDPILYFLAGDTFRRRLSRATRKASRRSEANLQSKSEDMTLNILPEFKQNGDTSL
UniProt P47900, whole entry S314A: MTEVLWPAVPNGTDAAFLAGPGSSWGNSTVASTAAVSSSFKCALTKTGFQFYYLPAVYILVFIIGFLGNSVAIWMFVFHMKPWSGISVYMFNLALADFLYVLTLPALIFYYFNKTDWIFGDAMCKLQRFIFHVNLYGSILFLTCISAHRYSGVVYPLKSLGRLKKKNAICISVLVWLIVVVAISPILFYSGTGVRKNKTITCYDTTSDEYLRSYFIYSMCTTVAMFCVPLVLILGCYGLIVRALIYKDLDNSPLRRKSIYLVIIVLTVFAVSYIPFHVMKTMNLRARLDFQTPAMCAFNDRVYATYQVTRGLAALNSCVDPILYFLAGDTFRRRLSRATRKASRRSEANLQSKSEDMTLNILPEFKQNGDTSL
UniProt P47900, whole entry Y306A: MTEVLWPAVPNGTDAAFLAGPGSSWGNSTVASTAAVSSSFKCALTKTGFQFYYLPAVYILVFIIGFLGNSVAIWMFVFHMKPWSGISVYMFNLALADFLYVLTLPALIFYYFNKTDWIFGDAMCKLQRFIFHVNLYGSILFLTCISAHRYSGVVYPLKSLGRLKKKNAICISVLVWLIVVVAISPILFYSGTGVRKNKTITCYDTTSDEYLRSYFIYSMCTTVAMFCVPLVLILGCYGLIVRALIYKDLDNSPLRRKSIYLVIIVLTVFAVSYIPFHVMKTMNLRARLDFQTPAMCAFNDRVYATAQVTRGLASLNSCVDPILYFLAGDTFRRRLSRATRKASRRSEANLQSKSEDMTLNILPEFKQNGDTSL
UniProt P47900, whole entry R128A: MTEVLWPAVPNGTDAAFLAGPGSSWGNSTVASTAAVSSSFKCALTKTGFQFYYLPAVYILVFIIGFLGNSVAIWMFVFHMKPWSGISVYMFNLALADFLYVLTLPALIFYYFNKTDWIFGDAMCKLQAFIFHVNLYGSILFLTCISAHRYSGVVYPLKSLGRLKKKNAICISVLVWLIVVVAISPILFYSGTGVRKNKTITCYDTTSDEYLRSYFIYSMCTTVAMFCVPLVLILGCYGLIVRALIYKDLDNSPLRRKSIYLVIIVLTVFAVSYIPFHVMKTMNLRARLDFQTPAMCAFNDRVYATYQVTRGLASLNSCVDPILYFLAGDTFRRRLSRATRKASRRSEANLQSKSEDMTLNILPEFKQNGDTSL
UniProt P47900, whole entry E209A: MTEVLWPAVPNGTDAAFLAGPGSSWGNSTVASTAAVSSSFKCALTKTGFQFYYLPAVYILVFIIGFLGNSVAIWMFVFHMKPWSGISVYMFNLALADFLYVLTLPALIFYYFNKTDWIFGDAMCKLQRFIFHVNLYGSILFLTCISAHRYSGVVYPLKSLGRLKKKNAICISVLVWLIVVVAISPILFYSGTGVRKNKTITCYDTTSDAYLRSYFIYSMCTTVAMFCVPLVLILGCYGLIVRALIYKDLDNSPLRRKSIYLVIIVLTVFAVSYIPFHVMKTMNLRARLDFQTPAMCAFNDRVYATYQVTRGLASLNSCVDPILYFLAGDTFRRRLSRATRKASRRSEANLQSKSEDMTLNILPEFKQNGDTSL
UniProt P47900, whole entry R301A: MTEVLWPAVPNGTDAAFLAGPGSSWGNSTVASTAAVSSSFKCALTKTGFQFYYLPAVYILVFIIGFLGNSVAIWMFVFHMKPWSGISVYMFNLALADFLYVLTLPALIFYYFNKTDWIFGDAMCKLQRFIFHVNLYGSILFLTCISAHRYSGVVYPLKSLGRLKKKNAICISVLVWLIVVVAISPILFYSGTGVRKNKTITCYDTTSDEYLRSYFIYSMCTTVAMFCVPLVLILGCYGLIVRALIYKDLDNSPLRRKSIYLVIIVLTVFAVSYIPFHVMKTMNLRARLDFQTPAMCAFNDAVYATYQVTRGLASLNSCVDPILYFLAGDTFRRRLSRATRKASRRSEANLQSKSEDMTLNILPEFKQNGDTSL

What was measured:
Assay type in all cases: cell-based
[1] = target: P2Y purinoceptor 1 (Homo sapiens, UniProt P47900, E209D); assay: Effective concentration required for the activation of human E209D mutant strain P2Y1 receptors expressed in COS-7 cells for the accumulation of inositol phosphate
[2] = target: P2Y purinoceptor 1 (Homo sapiens, UniProt P47900, E209R); assay: Effective concentration required for the activation of human E209R mutant strain P2Y1 receptors expressed in COS-7 cells for the accumulation of inositol phosphate
[3] = target: T1, P2Y purinoceptor 1 (Homo sapiens, UniProt P47900, Y203A); assay: Inhibition concentration required against human Y203A (EL2) mutant strain P2Y1 receptor expressed in COS-7 cells is determined using [3H]MRS2279 as radioligand
[4] = target: P2Y purinoceptor 1 (Homo sapiens, UniProt P47900, Y273F); assay: Inhibition concentration required against human Y273F mutant strain P2Y1 receptor expressed in COS-7 cells is determined using [3H]MRS2279 as radioligand
[5] = target: P2Y purinoceptor 1 (Homo sapiens, UniProt P47900, D289A); assay: Effective concentration required for the activation of human D289A mutant strain P2Y1 receptors expressed in COS-7 cells for the accumulation of inositol phosphate
[6] = target: P2Y purinoceptor 1 (Homo sapiens, UniProt P47900, T222A); assay: Effective concentration required for the activation of human T222A mutant strain P2Y1 receptors expressed in COS-7 cells for the accumulation of inositol phosphate
[7] = target: P2Y purinoceptor 1 (Homo sapiens, UniProt P47900, D300A); assay: Effective concentration required for the activation of human D300A mutant strain P2Y1 receptors expressed in COS-7 cells for the accumulation of inositol phosphate
[8] = target: P2Y purinoceptor 1 (Homo sapiens, UniProt P47900, R287E); assay: Effective concentration required for the activation of human R287E mutant strain P2Y1 receptors expressed in COS-7 cells for the accumulation of inositol phosphate
[9] = target: P2Y purinoceptor 1 (Homo sapiens, UniProt P47900, R287Q); assay: Effective concentration required for the activation of human R287Q mutant strain P2Y1 receptors expressed in COS-7 cells for the accumulation of inositol phosphate
[10] = target: P2Y purinoceptor 1 (Homo sapiens, UniProt P47900, E209Q); assay: Effective concentration required for the activation of human E209Q mutant strain P2Y1 receptors expressed in COS-7 cells for the accumulation of inositol phosphate
[11] = target: P2Y purinoceptor 1 (Homo sapiens, UniProt P47900, D204A); assay: Effective concentration required for the activation of human D204A mutant strain P2Y1 receptors expressed in COS-7 cells for the accumulation of inositol phosphate
[12] = target: P2Y purinoceptor 1 (Homo sapiens, UniProt P47900, C296A); assay: Effective concentration required for the activation of human C296A mutant strain P2Y1 receptors expressed in COS-7 cells for the accumulation of inositol phosphate
[13] = target: P2Y purinoceptor 1 (Homo sapiens, UniProt P47900, S314A); assay: Effective concentration required for the activation of human S314A mutant strain P2Y1 receptors expressed in COS-7 cells for the accumulation of inositol phosphate
[14] = target: T2, P2Y purinoceptor 1 (Homo sapiens, UniProt P47900, Y306A); assay: Inhibition concentration required against human Y306A mutant strain P2Y1 receptor expressed in COS-7 cells is determined using [3H]MRS2279 as radioligand
[15] = target: P2Y purinoceptor 1 (Homo sapiens, UniProt P47900, R128A); assay: Effective concentration required for the activation of human R128A mutant strain P2Y1 receptors expressed in COS-7 cells for the accumulation of inositol phosphate
[16] = target: T2, P2Y purinoceptor 1; assay: Effective concentration to activate human Y306A mutant strain P2Y1 receptor expressed in COS-7 cells for the accumulation of inositol phosphate
[17] = target: P2Y purinoceptor 1 (Homo sapiens, UniProt P47900, E209A); assay: Effective concentration required for the activation of human E209A mutant strain P2Y1 receptors expressed in COS-7 cells for the accumulation of inositol phosphate
[18] = target: T1, P2Y purinoceptor 1; assay: Effective concentration to activate human Y203A (EL2) mutant strain P2Y1 receptor expressed in COS-7 cells for the accumulation of inositol phosphate
[19] = target: P2Y purinoceptor 1 (Homo sapiens, UniProt P47900, R301A); assay: Effective concentration required for the activation of human R301A mutant strain P2Y1 receptors expressed in COS-7 cells for the accumulation of inositol phosphate
[20] = target: P2Y purinoceptor 1 (Homo sapiens, UniProt P47900, K198A); assay: Effective concentration required for the activation of human K198A mutant strain P2Y1 receptors expressed in COS-7 cells for the accumulation of inositol phosphate
[21] = target: P2Y purinoceptor 1 (Homo sapiens, UniProt P47900, Y273A); assay: Inhibition concentration required against human Y273A mutant strain P2Y1 receptor expressed in COS-7 cells is determined using [3H]-MRS2279 as radioligand
[22] = target: P2Y purinoceptor 1 (Homo sapiens, UniProt P47900, H277A); assay: Effective concentration required for the activation of human H277A mutant strain P2Y1 receptors expressed in COS-7 cells for the accumulation of inositol phosphate
[23] = target: P2Y purinoceptor 1 (Homo sapiens, UniProt P47900, R287A); assay: Effective concentration required for the activation of human R287A mutant strain P2Y1 receptors expressed in COS-7 cells for the accumulation of inositol phosphate
[24] = target: P2Y purinoceptor 1 (Homo sapiens, UniProt P47900, Y203F); assay: Effective concentration to activate human Y203F mutant strain P2Y1 receptor expressed in COS-7 cells for the accumulation of inositol phosphate
[25] = target: P2Y purinoceptor 1 (Homo sapiens, UniProt P47900, C202A); assay: Effective concentration required for the activation of human C202A mutant strain P2Y1 receptors expressed in COS-7 cells for the accumulation of inositol phosphate
[26] = target: P2Y purinoceptor 1 (Homo sapiens, UniProt P47900, Q307A); assay: Effective concentration required for the activation of human Q307A mutant strain P2Y1 receptors expressed in COS-7 cells for the accumulation of inositol phosphate
[27] = target: P2Y purinoceptor 1 (Homo sapiens, UniProt P47900, R212A); assay: Effective concentration required for the activation of human R212A mutant strain P2Y1 receptors expressed in COS-7 cells for the accumulation of inositol phosphate

EC50 [1]: 3.2 nM | EC50 [2]: 4.9 nM | IC50 [3]: > 10000 nM | IC50 [4]: 40 nM | EC50 [5]: 3.9 nM | EC50 [6]: 11.2 nM | EC50 [7]: 9.8 nM | EC50 [8]: > 100000 nM | EC50 [9]: 5290 nM | EC50 [10]: 8.6 nM | EC50 [11]: 66.5 nM | EC50 [12]: 5160 nM | EC50 [13]: > 100000 nM | IC50 [14]: 150 nM | EC50 [15]: > 100000 nM | EC50 [16]: 15 nM | EC50 [17]: 17200 nM | EC50 [18]: > 10000 nM | EC50 [19]: 2.6 nM | EC50 [20]: 17.5 nM | IC50 [21]: 22 nM | EC50 [22]: 100 nM | EC50 [23]: 14800 nM | EC50 [24]: 16 nM | EC50 [25]: > 100000 nM | EC50 [26]: 455 nM | EC50 [27]: 7.8 nM
Structure (SMILES): CSc1nc(N)c2ncn([C@@H]3O[C@H](COP(=O)(O)OP(=O)(O)O)[C@@H](O)[C@H]3O)c2n1
